This is an account of results in ChEMBL document CHEMBL5104233, “Advanced approaches of developing targeted covalent drugs” (RSC Med Chem, 2022).

The chains behind the UniProt entries cited, without tags or fusion partners. Residues count along the entry.
UniProt P00533, 25-1210 T790M/L858R limits assumed: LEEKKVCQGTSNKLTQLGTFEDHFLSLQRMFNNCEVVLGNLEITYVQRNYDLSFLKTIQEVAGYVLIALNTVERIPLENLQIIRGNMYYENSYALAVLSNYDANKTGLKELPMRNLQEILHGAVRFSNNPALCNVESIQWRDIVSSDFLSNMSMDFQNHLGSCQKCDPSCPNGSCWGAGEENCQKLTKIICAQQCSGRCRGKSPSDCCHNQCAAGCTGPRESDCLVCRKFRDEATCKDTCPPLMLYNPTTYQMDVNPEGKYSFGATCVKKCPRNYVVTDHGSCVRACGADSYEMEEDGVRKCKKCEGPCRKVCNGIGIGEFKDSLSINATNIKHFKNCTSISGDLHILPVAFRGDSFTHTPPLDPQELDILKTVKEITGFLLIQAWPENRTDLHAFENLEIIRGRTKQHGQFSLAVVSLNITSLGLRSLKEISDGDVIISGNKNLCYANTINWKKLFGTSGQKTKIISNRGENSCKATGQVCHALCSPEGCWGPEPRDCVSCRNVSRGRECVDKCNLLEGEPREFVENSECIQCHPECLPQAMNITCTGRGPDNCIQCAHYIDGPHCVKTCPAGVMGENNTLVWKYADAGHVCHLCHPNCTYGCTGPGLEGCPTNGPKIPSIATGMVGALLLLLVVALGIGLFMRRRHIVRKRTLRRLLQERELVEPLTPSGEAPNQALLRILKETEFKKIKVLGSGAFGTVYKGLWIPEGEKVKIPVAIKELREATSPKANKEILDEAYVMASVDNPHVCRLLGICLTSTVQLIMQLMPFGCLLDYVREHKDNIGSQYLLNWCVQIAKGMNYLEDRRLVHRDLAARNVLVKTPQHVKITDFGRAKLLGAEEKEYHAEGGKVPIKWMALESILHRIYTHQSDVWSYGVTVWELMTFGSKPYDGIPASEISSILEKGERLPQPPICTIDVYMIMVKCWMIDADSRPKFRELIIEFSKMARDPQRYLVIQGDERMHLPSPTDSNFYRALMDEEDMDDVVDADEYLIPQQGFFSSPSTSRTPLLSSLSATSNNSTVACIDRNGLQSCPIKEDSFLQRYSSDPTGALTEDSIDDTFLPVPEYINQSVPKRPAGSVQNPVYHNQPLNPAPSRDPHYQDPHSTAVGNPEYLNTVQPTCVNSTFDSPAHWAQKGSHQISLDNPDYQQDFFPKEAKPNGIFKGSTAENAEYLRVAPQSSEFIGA

This test has as its target Epidermal growth factor receptor (Homo sapiens, UniProt P00533, L858R/T790M).

In turn, `Cc1cc(C(=O)Nc2nc3cccc(Cl)c3n2[C@@H]2CCCCN(C(=O)/C=C/CN(C)C)C2)ccn1` [NAZARTINIB] had an IC50 of 31 nM.
